Data as given in publication PMC9102502, “The Influence of Selected Antipsychotic Drugs on Biochemical Aspects of Alzheimer’s Disease” (International Journal of Molecular Sciences, 2022).
Marks after values point to notes of the source that are not given here.

Protein sequences, listed by entry. Tags and fused reporters are not part of them. Residues count along the entry.
UniProt P06276, 29-602: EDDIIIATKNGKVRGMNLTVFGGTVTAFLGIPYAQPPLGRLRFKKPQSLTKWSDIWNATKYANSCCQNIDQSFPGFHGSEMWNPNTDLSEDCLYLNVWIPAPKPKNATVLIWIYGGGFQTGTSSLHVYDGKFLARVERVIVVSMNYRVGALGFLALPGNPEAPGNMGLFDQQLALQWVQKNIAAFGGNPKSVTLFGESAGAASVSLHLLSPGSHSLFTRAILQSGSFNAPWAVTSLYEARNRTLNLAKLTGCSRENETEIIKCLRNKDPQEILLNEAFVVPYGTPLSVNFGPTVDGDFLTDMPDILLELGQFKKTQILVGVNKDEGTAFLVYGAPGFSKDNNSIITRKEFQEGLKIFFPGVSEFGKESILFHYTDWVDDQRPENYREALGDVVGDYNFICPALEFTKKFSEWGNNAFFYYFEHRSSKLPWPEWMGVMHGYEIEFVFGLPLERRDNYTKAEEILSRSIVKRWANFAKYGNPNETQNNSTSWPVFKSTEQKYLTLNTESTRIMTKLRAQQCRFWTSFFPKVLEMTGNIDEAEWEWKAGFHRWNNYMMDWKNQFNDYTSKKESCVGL
UniProt P22303, 32-617 isoform P22303-2 limits assumed: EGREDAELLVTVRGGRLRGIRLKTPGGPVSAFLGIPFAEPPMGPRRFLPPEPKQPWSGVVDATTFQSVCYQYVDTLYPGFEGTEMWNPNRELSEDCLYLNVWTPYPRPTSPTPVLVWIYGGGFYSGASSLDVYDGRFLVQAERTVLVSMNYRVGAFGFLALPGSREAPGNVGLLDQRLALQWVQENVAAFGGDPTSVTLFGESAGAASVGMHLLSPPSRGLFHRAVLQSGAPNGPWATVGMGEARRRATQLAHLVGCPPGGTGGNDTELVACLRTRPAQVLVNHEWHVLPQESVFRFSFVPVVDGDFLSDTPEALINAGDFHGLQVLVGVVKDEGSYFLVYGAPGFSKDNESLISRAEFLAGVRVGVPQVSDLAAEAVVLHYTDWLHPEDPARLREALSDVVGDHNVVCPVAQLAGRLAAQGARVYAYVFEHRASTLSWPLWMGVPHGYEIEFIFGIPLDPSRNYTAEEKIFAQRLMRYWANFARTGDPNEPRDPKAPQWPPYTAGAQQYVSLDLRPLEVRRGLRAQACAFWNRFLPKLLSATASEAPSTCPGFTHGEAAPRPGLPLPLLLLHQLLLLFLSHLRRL

Columns and labels:
BuChE = BuChE (Homo sapiens, UniProt P06276); assay: Synergism of antipsychotics with donepezil/rivastigmine (binary mixtures), BuChE; conditions: ComboSyn;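 further: combination index derived by median-effect analysis of combined drug effects on the cholinesterase, with values below 1 meaning synergism, exactly 1 additivity and above 1 antagonism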
[1] = target: T1, human plasma butyrylcholinesterase (Homo sapiens, UniProt P06276); assay: BuChE inhibition, modified Ellman's method; type: biochemical
T1 construct: The solution of plasma 200-fold diluted with 0.9% NaCl; from tissue; host or cells: citrated plasma from blood of healthy human donors

[2] = target: T2, human erythrocyte acetylcholinesterase (Homo sapiens, UniProt P22303); assay: AChE inhibition, modified Ellman's method; type: biochemical; conditions: IC50 BuChE/IC50 AChE; theoretical values from extrapolated plots
T2 construct: solution of hemolyzed erythrocytes diluted 400-fold; from tissue; host or cells: hemolyzed erythrocytes from blood of healthy human donors

AChE = AChE (Homo sapiens, UniProt P22303); assay: Synergism of antipsychotics with donepezil/rivastigmine (binary mixtures), AChE; conditions: ComboSyn;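 further: antipsychotic concentration kept fixed across all measurements, selected from estimated therapeutic plasma levels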
[3] = donepezil 100 μmol/L + antipsychotic at TPCmax
[4] = rivastigmine 0.5 μmol/L + antipsychotic at TPCmax
[5] = rivastigmine 0.75 μmol/L + antipsychotic at TPCmax
[6] = rivastigmine 1 μmol/L + antipsychotic at TPCmax
[7] = rivastigmine 2.5 μmol/L + antipsychotic at TPCmax
[8] = rivastigmine 5 μmol/L + antipsychotic at TPCmax

OCCOCCN1CCN(C2=Nc3ccccc3Sc3ccccc32)CC1 [Quetiapine, quetiapine]
CI (combination index), BuChE (BuChE; [3]): 0.95
CI (combination index), BuChE (BuChE; [4]): 1.03
CI (combination index), BuChE (BuChE; [5]): 1.04
CI (combination index), BuChE (BuChE; [6]): 1.00
CI (combination index), BuChE (BuChE; [7]): 1.01
CI (combination index), BuChE (BuChE; [8]): 1.10

CCN(C)C(=O)Oc1cccc([C@H](C)N(C)C)c1 [Rivastigmine, rivastigmine]
IC50 ([1]; experimental data, mean ± SD, n = 6–9): 0.95 ± 0.09 µM

CN(C)CCCN1c2ccccc2Sc2ccccc21 [Promazine, promazine]
SI AChE [2]: 0.05 *
SI BuChE ([1]; IC50 AChE/IC50 BuChE, theoretical values from extrapolated plots): 19 *
CI (combination index), AChE (AChE; donepezil 0.005 μmol/L + antipsychotic at TPCmax, CI < 1 synergism, > 1 antagonism): 1.34
CI (combination index), AChE (AChE; donepezil 0.01 μmol/L + antipsychotic at TPCmax): 1.04
CI (combination index), AChE (AChE; donepezil 0.02 μmol/L + antipsychotic at TPCmax): 1.12
CI (combination index), AChE (AChE; donepezil 0.05 μmol/L + antipsychotic at TPCmax): 0.97
CI (combination index), AChE (AChE; donepezil 0.1 μmol/L + antipsychotic at TPCmax): 0.80
CI (combination index), AChE (AChE; [8]): 0.52
CI (combination index), AChE (AChE; rivastigmine 10 μmol/L + antipsychotic at TPCmax): 0.66
CI (combination index), AChE (AChE; rivastigmine 15 μmol/L + antipsychotic at TPCmax): 0.62
CI (combination index), AChE (AChE; rivastigmine 25 μmol/L + antipsychotic at TPCmax): 0.68
CI (combination index), AChE (AChE; rivastigmine 40 μmol/L + antipsychotic at TPCmax): 0.66
CI (combination index), AChE (AChE; rivastigmine 50 μmol/L + antipsychotic at TPCmax): 0.72
CI (combination index), AChE (AChE; rivastigmine 75 μmol/L + antipsychotic at TPCmax): 0.72
CI (combination index), AChE (AChE; rivastigmine 100 μmol/L + antipsychotic at TPCmax): 0.81
CI (combination index), BuChE (BuChE; donepezil 2 μmol/L + antipsychotic at TPCmax): 0.61
CI (combination index), BuChE (BuChE; donepezil 5 μmol/L + antipsychotic at TPCmax): 0.56
CI (combination index), BuChE (BuChE; donepezil 10 μmol/L + antipsychotic at TPCmax): 0.56
CI (combination index), BuChE (BuChE; donepezil 20 μmol/L + antipsychotic at TPCmax): 0.64
CI (combination index), BuChE (BuChE; donepezil 50 μmol/L + antipsychotic at TPCmax): 0.78
CI (combination index), BuChE (BuChE; [3]): 0.81
CI (combination index), BuChE (BuChE; rivastigmine 0.05 μmol/L + antipsychotic at TPCmax): 0.66
CI (combination index), BuChE (BuChE; rivastigmine 0.1 μmol/L + antipsychotic at TPCmax): 0.67
CI (combination index), BuChE (BuChE; rivastigmine 0.25 μmol/L + antipsychotic at TPCmax): 0.85
CI (combination index), BuChE (BuChE; [4]): 1.04
CI (combination index), BuChE (BuChE; [5]): 1.14
CI (combination index), BuChE (BuChE; [6]): 1.30
CI (combination index), BuChE (BuChE; [7]): 1.78
CI (combination index), BuChE (BuChE; [8]): 2.27
